# Tested on: B-cell subsets
# Assay: Longitudinal blood analysis of B-cell subsets (MAGNIFY-MS deep immune phenotyping)
# [1] = Patient 70056800227010005, Month 2
# [2] = Patient 70056800227010005, Month 2 to end of month 3
# [3] = Patient 70056800227010005, end of month 3
# [4] = Patient Australia VZV-70056800221260001, month 0, 8.6 wk after Zostavax, 1.3 wk before first Mavenclad dose
# [5] = Patient Australia VZV-70056800221260001, month 3, 24.6 wk after Zostavax, 14.7 wk after first Mavenclad dose
# [6] = Patient Canada VZV-70056800222530003, month 0, 9.7 wk after Shingrix, before first Mavenclad dose
# [7] = Patient Canada VZV-70056800222530003, month 3, 23.0 wk after Shingrix, 13.3 wk after first Mavenclad dose
# [8] = Patient Finland VZV-70056800221620004, month 0, 6.4 wk after Zostavax, before first Mavenclad dose
# [9] = Patient Finland VZV-70056800221620004, month 12, 61.3 wk after Zostavax, 54.9 wk after first Mavenclad dose
# [10] = Patient Finland VZV-70056800221620004, month 15, 74.3 wk after Zostavax, 13.0 wk after first dose of previous Mavenclad course
structure (smiles),measurement,setting,value
"Nc1nc(Cl)nc2c1ncn2[C@H]1C[C@H](O)[C@@H](CO)O1 [cladribine tablets, Cladribine]","Bregs, change vs baseline",Month 1,−37%
same,"Memory B-cells, change vs baseline",Month 1,−77%
same,"CD 19+ B-cells, change vs baseline","Month 1, listed as Cladribine",−76%
same,"Naïve B-cells, change vs baseline","Month 1, listed as Cladribine",−79%
same,"Transitional B-cells, change vs baseline","Month 1, listed as Cladribine",−61%
same,"CD 19+ B-cells, change vs baseline","Month 1, listed as cladribine",−76%
same,"Naïve B-cells, change vs baseline","Month 1, listed as cladribine",−79%
same,"Transitional B-cells, change vs baseline","Month 1, listed as cladribine",−61%
same,"Bregs, change vs baseline",Month 2,−10%
same,"CD 19+ B-cells, change vs baseline","Month 2, listed as Cladribine",−90%
same,"Memory B-cells, change vs baseline","Month 2, listed as Cladribine",−93%
same,"Naïve B-cells, change vs baseline","Month 2, listed as Cladribine",−92%
same,"Transitional B-cells, change vs baseline","Month 2, listed as Cladribine",−61%
same,"CD 19+ B-cells, change vs baseline","Month 2, listed as cladribine",−90%
same,"Memory B-cells, change vs baseline","Month 2, listed as cladribine",−93%
same,"Naïve B-cells, change vs baseline","Month 2, listed as cladribine",−92%
same,"Transitional B-cells, change vs baseline","Month 2, listed as cladribine",−61%
same,"Memory B-cells, change vs baseline",Month 3,−93%
same,"Bregs, change vs baseline","Month 3, listed as Cladribine",+216%
same,"CD 19+ B-cells, change vs baseline","Month 3, listed as Cladribine",−76%
same,"Naïve B-cells, change vs baseline","Month 3, listed as Cladribine",−69%
same,"Transitional B-cells, change vs baseline","Month 3, listed as Cladribine",+35%
same,"Bregs, change vs baseline","Month 3, listed as cladribine",+216%
same,"CD 19+ B-cells, change vs baseline","Month 3, listed as cladribine",−76%
same,"Naïve B-cells, change vs baseline","Month 3, listed as cladribine",−69%
same,"Transitional B-cells, change vs baseline","Month 3, listed as cladribine",+35%
same,"Memory B-cells, change vs baseline",Month 6,−92%
same,"Bregs, change vs baseline","Month 6, listed as Cladribine",+202%
same,"CD 19+ B-cells, change vs baseline","Month 6, listed as Cladribine",−57%
same,"Naïve B-cells, change vs baseline","Month 6, listed as Cladribine",−35%
same,"Transitional B-cells, change vs baseline","Month 6, listed as Cladribine",+19%
same,"Bregs, change vs baseline","Month 6, listed as cladribine",+202%
same,"CD 19+ B-cells, change vs baseline","Month 6, listed as cladribine",−57%
same,"Naïve B-cells, change vs baseline","Month 6, listed as cladribine",−35%
same,"Transitional B-cells, change vs baseline","Month 6, listed as cladribine",+19%
same,"Bregs, change vs baseline","Month 12, listed as Cladribine",+75%
same,"CD 19+ B-cells, change vs baseline","Month 12, listed as Cladribine",−11%
same,"Memory B-cells, change vs baseline","Month 12, listed as Cladribine",−89%
same,"Naïve B-cells, change vs baseline","Month 12, listed as Cladribine",+32%
same,"Transitional B-cells, change vs baseline","Month 12, listed as Cladribine",+23%
same,"Bregs, change vs baseline","Month 12, listed as cladribine",+75%
same,"CD 19+ B-cells, change vs baseline","Month 12, listed as cladribine",−11%
same,"Memory B-cells, change vs baseline","Month 12, listed as cladribine",−89%
same,"Transitional B-cells, change vs baseline","Month 12, listed as cladribine",+23%
same,memory B cell decrease,"Patient 70056800222520001, month 6",80%
same,CD38^bright Plasma cells,[1],822 cells/ml
same,Short lived PCs (CD27^bright),[1],831 cells/ml
same,CD38^bright Plasma cells increase,[2],3.3 fold
same,Short lived PCs (CD27^bright) increase,[2],3.3 fold
same,CD20+ B cells reduction,"Patient 70056800227010005, Month 3",−72%
same,CD38^bright Plasma cells,[3],2716 cells/ml
same,Short lived PCs (CD27^bright),[3],2762 cells/ml
same,CD19+ B-cells,[4],121 cells/μL
same,CD20+ B-cells,[4],119.1 cells/μL
same,CD38+ Plasma cells,[4],1.0 cells/μL
same,CD69+ actv. B-cells,[4],1.9 cells/μL
same,Memory B-cells,[4],29.1 cells/μL
same,Naïve B-cells,[4],84.6 cells/μL
same,Regulatory B-cells,[4],1.1 cells/μL
same,Short-lived PCs,[4],0.9 cells/μL
same,Transitional B-cells,[4],4.1 cells/μL
same,CD19+ B-cells,[5],18 cells/μL
same,CD20+ B-cells,[5],17.5 cells/μL
same,CD38+ Plasma cells,[5],0.3 cells/μL
same,CD69+ actv. B-cells,[5],0.3 cells/μL
same,Memory B-cells,[5],2.3 cells/μL
same,Naïve B-cells,[5],13.7 cells/μL
same,Regulatory B-cells,[5],4.5 cells/μL
same,Short-lived PCs,[5],0.2 cells/μL
same,Transitional B-cells,[5],7.0 cells/μL
same,CD69+ actv. B-cells,[6],3.0 cells/μL
same,Memory B-cells,[6],67.0 cells/μL
same,Naïve B-cells,[6],160.7 cells/μL
same,Regulatory B-cells,[6],13.4 cells/μL
same,Transitional B-cells,[6],18.1 cells/μL
same,CD19+ B-cells,[7],39 cells/μL
same,CD20+ B-cells,[7],38.6 cells/μL
same,CD38+ Plasma cells,[7],0.3 cells/μL
same,CD69+ actv. B-cells,[7],0.3 cells/μL
same,Memory B-cells,[7],1.9 cells/μL
same,Naïve B-cells,[7],35.2 cells/μL
same,Regulatory B-cells,[7],12.5 cells/μL
same,Short-lived PCs,[7],<LLOQ
same,Transitional B-cells,[7],12.2 cells/μL
same,CD19+ B-cells,[8],290 cells/μL
same,CD20+ B-cells,[8],284.3 cells/μL
same,CD38+ Plasma cells,[8],2.8 cells/μL
same,CD69+ actv. B-cells,[8],3.3 cells/μL
same,Memory B-cells,[8],44.2 cells/μL
same,Naïve B-cells,[8],235.4 cells/μL
same,Regulatory B-cells,[8],6.2 cells/μL
same,Short-lived PCs,[8],2.1 cells/μL
same,Transitional B-cells,[8],16.9 cells/μL
same,CD19+ B-cells,[9],257 cells/μL
same,CD20+ B-cells,[9],255.3 cells/μL
same,CD38+ Plasma cells,[9],0.6 cells/μL
same,CD69+ actv. B-cells,[9],3.3 cells/μL
same,Memory B-cells,[9],6.5 cells/μL
same,Naïve B-cells,[9],245.8 cells/μL
same,Regulatory B-cells,[9],6.5 cells/μL
same,Short-lived PCs,[9],0.4 cells/μL
same,Transitional B-cells,[9],17.8 cells/μL
same,CD19+ B-cells,[10],88 cells/μL
same,CD20+ B-cells,[10],86.2 cells/μL
same,CD38+ Plasma cells,[10],0.3 cells/μL
same,CD69+ actv. B-cells,[10],1.0 cells/μL
same,Memory B-cells,[10],1.3 cells/μL
same,Naïve B-cells,[10],83.3 cells/μL
same,Regulatory B-cells,[10],30.5 cells/μL
same,Short-lived PCs,[10],0.2 cells/μL
same,Transitional B-cells,[10],29.9 cells/μL
